Data as given in patent US6803233B2, “Model for Alzheimer's disease and other neurodegenerative diseases” (priority 2000, dated 2004).

Test system: reactive microglia
Assay: ED-1 immunocytochemistry of cultured brain explants
Format: cell-based, rat
Details: ZPAD 20 μM, mevastatin 20 μM or PD98059 50 μM alone, 6 days
Protocol: Immunocytochemical studies using the monoclonal antibody ED-1 that recognizes reactive microglia were used at 1:1000 dilution following standard immunohistochemical procedures. Microglial activation was determined by measuring cell numbers, optical density, and size of cell bodies using the program NIH Image. Brain tissue was cultured for 12 days and treated with ZPAD (20 μM) in the presence or absence of PD98059 (50 μM) for 6 days (FIG. 18). Cultured explants were then sliced and stained by using monoclonal antibody ED-1 which recognizes reactive microglia, a classical marker of inflammation. […] Rat brain tissues were cultured for 10 days and incubated with vehicle (Cont), ZPAD (20 μM), mevastatin (Mev, 20 μM), or mevastatin plus […]) for 6 days (FIG. 19). Cultured brain explants were then sliced and stained by using monoclonal antibody ED-1, a classical marker for reactive microglia and macrophages.

CC[C@H](C)C(=O)O[C@H]1CCC=C2C=C[C@H](C)[C@H](CC[C@@H]3C[C@@H](O)CC(=O)O3)[C@H]21 [mevastatin]
reaction of microglia (ED-1 staining): induced dramatic morphologic changes of microglia
